Series [1] can be described thus: Plasma pharmacokinetics of neratinib and trametinib co-administered, cycle 1 day 15 (LC/MS, noncompartmental). The series is classed as in vivo, human. The procedure: PK parameters for trametinib and neratinib were determined using noncompartmental analysis methods using Phoenix WinNonlin 8.1 (Certara USA Inc, Princeton, NJ, USA).
The conditions of series [2]: mean (range), ref Infante et al. 32, cited from earlier work.
A further series concerns patients. Particulars: cited from earlier work.
The mark [3] stands for this setting: monotherapy 1mg, N=2, ref Infante et al 32.
[4] abbreviates: monotherapy 2mg, N=70, cell as count (percent), ref Infante et al 32.

Each structure is given as a SMILES string. Like-named read-outs stand apart in the source and are kept apart here.

With `CC(=O)Nc1cccc(-n2c(=O)n(C3CC3)c(=O)c3c(Nc4ccc(I)cc4F)n(C)c(=O)c(C)c32)c1` [trametinib], the “AR (accumulation ratio)” value in series [1] (co-administered at dose level minus 1 (160 mg neratinib daily with 1 mg trametinib 5 days on and 2 days off), day 15, 8 patients, mean (range)) is listed as 13.9 (1.3–14.9). Moreover, the “accumulation ratios (AR) relative to those reported by Infante et al.” value in series [1] (day 15, co-administered with neratinib vs single agent (ref 32)) is listed as 2–3 times. Also, in series [2] (single agent trametinib 2 mg, 13 patients), the “AR (accumulation ratio)” value is 5.97 (4.03–11.5). Further, the “AR (accumulation ratio)” value in series [2] (single agent trametinib 2.5 mg, 16 patients) is given as 4.19 (1.02–13.1). Also, the “AR (accumulation ratio)” value in series [2] (single agent trametinib 3 mg, 16 patients) is given as 5.93 (1.50–18.0). In addition, in the series on patients (setting [3]), the “Grade > 3 TRAE: Diarrhea” value was 0, the “Grade > 3 TRAE: Rash” value is 0 and the “Grade > 3 TRAE: Vomiting” value is 0. In the series with patients (setting [4]), the “TRAE of all grades: Diarrhea” value is 32 (46), the “TRAE of all grades: Fatigue” value was 21 (30) and the “TRAE of all grades: Rash” value is reported as 59 (84).

The record behind these values is publication PMC10326142, “A phase I trial of the pan-ERBB inhibitor neratinib combined with the MEK inhibitor trametinib in patients with advanced cancer with EGFR mutation/amplification, HER2 mutation/amplification, HER3/4 mutation or KRAS mutation” (Cancer Chemotherapy and Pharmacology, 2023).
